Data from US8765779B2, “Tricyclic derivatives and their pharmaceutical use and compositions” (Cephalon, Inc., priority 2009, dated 2014).

The chains behind the UniProt entries cited, without tags or fusion partners.
UniProt P50406, whole entry: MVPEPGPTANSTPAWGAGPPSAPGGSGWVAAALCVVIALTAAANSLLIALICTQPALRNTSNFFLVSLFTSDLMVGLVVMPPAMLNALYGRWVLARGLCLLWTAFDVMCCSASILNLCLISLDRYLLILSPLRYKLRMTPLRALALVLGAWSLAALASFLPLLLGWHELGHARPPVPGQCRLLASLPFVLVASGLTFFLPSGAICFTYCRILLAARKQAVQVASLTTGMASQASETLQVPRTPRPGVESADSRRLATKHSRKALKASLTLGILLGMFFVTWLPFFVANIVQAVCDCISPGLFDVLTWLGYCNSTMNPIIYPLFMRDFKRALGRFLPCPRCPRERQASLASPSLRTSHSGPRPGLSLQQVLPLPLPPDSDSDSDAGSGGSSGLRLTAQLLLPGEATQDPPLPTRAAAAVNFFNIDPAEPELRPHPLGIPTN

Target: T1, human 5-HT6 receptor (Homo sapiens, UniProt P50406)
T1 construct: host or cells: CHO-K1 cells, stably transfected; membranes prepared in house
Test: Human 5-HT6 Receptor Binding Assay ([3H]LSD displacement, scintillation beads)
Details: read-out: h5-HT6 (Ki)
Description: Human 5-HT6 Receptor Binding Assay
Membranes were prepared from CHO—K1 cells stably transfected with the human 5-HT6 receptor (Euroscreen; ES-316-C). The cells were grown in Gibco Advanced DMEM-F12 (Cat#12634010) containing 2% dialyzed FBS (Hyclone Cat#SH30079.03). The cells were harvested in phosphate buffered saline (PBS) containing 0.1 mM EDTA and pelleted by centrifugation (1000×g), the supernatant was discarded and the pellets were stored at −80° C. prior to membrane preparation. Membranes were prepared as previously described (J Bio Chem. 1992, 267 (14) 9844-51). […] The membranes were centrifuged at 40,000×g for 30 min at 4° C. and the pellets were resuspended in membrane buffer containing 250 mM sucrose, and protein concentration was determined using the Coomassie Plus kit (Pierce Biotechnology, Rockford, Ill.).
Membranes prepared from cells expressing recombinant human 5-HT6 receptor (h5-HT6) were resuspended in assay buffer containing 50 mM Tris HCl, (pH7.4), 4 mM CaCl2, 10 μg/mL saponin, and 0.1% (w/v) ascorbic acid. […] Plates were read using the Microbeta Trilux 1450 LSC and luminescence counter. Data were analyzed by nonlinear […] using the dose-response equation (variable slope) to calculate IC50 in XLfit4 (ID Business Solutions Inc.): y=(Bottom+((Top−Bottom)/(1+((IC50/x)^Hill slope)))) […]

7-[(2-fluoropyridin-3-yl)sulfinyl]-4-1,2,3,4-tetrahydro[1]benzofuro[2,3-c]pyridine [Example 433]
Ki: < 500 nM
